From patent US20130053400A1, “OLIGOMER-ANTIHISTAMINE CONJUGATES” (priority 2007, published 2013)

By UniProt entry, the sequences of proteins in these tests, tags left out.
UniProt P47747, whole entry: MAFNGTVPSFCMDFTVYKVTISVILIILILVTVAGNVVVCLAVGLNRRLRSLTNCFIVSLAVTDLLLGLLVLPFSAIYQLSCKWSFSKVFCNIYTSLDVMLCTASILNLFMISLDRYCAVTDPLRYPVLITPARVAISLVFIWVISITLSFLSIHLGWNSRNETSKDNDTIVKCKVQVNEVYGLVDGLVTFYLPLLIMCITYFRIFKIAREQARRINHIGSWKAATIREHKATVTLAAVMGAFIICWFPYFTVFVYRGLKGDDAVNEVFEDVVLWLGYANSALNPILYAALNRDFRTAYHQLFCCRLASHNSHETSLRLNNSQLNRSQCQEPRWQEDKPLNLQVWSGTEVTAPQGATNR

Target: H2 histamine receptors (Cavia porcellus, UniProt P47747)
Conditions: screening, N=1, n=3; approximation; listed as PEG-6-DPH

COCCOCCOCCOCCOCCOCCN(C)CCOC(c1ccccc1)c1ccccc1 [mPEG(6)-N-Diphenhydramine, mPEG6-N-diphenhydramine]
Ki values: no specific binding to H2 receptors was observed
